In patent US7652062B2, “Cyanopyrrole-phenyl amide progesterone receptor modulators and uses thereof” (Wyeth LLC, priority 2005, dated 2010) one finds IC50 data, which are given here for two compounds.

A word on the pIC50: it is the IC50 on a negative log10 scale, so that one unit is a factor of ten.

In the assay the test system is T47D Cell. In words: T47D Cell Alkaline Phosphate Assay. Conditions: read-out: T47D Cell Alkaline Phosphate Assay IC50; T47D cells.

pIC50: −log10 of the molar value.

`Cc1cc(-c2ccc(C#N)n2C)ccc1NC#N`: the pIC50 was 7.17. As for `Cc1cc(NC#N)ccc1-c1ccc(C#N)n1C`, the pIC50 was 7.26.
